Drawing on patent US20240425441A9, “MODULATORS OF LIPOXYGENASE AND CYCLOOXYGENASE ENZYME ACTIVITY” (Université de Moncton, priority 2016, published 2024), this text covers IC50 for one molecule.

By UniProt entry, the sequences of proteins in these tests, tags left out.
UniProt P09917, whole entry: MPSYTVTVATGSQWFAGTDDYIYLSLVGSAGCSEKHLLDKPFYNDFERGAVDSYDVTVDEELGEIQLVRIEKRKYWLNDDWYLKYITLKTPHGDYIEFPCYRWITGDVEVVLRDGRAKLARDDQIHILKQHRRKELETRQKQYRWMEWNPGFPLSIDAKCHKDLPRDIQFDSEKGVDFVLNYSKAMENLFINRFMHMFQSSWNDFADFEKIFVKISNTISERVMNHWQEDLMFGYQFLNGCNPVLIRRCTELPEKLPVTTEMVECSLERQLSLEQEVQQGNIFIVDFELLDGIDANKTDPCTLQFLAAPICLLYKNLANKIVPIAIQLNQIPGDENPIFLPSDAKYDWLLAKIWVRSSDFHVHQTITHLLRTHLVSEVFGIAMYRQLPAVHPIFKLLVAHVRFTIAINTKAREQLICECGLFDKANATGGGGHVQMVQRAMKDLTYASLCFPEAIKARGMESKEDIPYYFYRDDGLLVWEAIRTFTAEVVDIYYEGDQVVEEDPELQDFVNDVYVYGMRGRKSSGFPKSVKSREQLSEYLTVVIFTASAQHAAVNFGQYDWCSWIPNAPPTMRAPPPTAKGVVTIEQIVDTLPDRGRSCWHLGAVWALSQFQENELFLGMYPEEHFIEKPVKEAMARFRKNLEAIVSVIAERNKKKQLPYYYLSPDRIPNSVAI

The target in this assay is 5-lipoxygenase (Homo sapiens (Human), UniProt P09917). Nature of the assay: Stimulation of isolated PMN (neutrophils) for 5-LO products. The assay is classed as cell-based. The following applies: read-out: PMN dose-response, ranges indicate confidence interval.

As to `COc1ccc(OC)c(C=CC(=O)OCC=C(C)C)c1`, the IC50 lay within 580 to 800 nM.
